Laboratory results reported in US9108943B2, “Photoreactive benzamide probes for histone deacetylase 2” (THE BOARD OF TRUSTEES OF THE UNIVERSITY OF ILLINOIS, priority 2013, dated 2015).
pIC50: −log10 of the molar value.

The chains behind the UniProt entries cited, without tags or fusion partners.
UniProt Q92769, whole entry: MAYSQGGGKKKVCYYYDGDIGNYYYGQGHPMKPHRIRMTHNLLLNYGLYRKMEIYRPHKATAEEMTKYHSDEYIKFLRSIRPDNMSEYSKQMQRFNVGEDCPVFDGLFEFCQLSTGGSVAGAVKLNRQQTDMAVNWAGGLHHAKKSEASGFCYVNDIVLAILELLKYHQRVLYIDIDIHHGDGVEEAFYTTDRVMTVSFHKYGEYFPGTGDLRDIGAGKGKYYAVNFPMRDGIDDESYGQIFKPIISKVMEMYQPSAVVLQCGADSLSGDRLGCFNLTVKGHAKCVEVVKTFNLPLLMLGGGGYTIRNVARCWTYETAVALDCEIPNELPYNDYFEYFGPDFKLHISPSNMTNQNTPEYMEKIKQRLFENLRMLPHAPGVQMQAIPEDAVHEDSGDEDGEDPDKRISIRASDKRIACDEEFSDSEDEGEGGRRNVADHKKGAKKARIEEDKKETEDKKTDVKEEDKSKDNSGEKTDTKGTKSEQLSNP

Target: T1, recombinant human HDAC2 (Homo sapiens, UniProt Q92769)
T1 construct: purchased BPS Bioscience
Experiment: Fluorogenic HDAC inhibition assay, HDAC2 (Boc-L-Lys(Ac)-AMC substrate)
Type: biochemical
Description: 10 μL of the enzyme stock was added to 30 μL of the probes and preincubated for different preincubation times.

Row | SMILES | pIC50 | increase in inhibition of HDAC2 upon preincubation (IC50 ratio) (preincubation 3 h vs 5 min)
1 | [N-]=[N+]=Nc1ccc(C(=O)Nc2cc(-c3ccccc3)ccc2N)cc1 [probe 1a, N-(4-amino-[1,1′-biphenyl]-3-yl)-4-azidobenzamide] | 6.68 | –
2 | [N-]=[N+]=Nc1ccc(C(=O)Nc2cc(-c3cccs3)ccc2N)cc1 [probe 1b, N-(2-amino-5-(thiophen-2-yl)phenyl)-4-azidobenzamide] | 6.96 | –
3 | [N-]=[N+]=NCc1cc(COC(=O)NCc2ccc(C(=O)Nc3cc(-c4cccs4)ccc3N)cc2)cc(N=[N+]=[N-])c1 [probe 2c, 3-azido-5-(azidomethyl)benzyl 4-((2-amino-5-(thiophen-2-yl)phenyl)carbamoyl)benzylcarbamate] | – | 7.1 fold
